Laboratory results published in paper PMC8469090 (Pharmaceutics, 2021).
Where two headings read alike, the source gives them in different places.

Columns and labels:
[1] = Older Patients (>65 years), n = 24, i.v. 15,000 IU/m^2, AVG, cited from earlier work
[2] = Younger Patients (<65 years), n = 12, i.v. 15,000 IU/m^2, AVG
Method: For blood collection, 12 patients younger than 65 years were eligible. […] Samples were centrifuged at 1882× g for 10 min at room temperature. Plasma was carefully transferred to a new Eppendorf tube and stored at −20 °C until analysis.
Plasma samples were prepared for analysis by protein precipitation and phospholipid removal using Ostro™ 96-well plates (Waters Corp., Milford, MA, USA). A 200-µL plasma sample was added to the 2-mL well, followed by 600 µL acetonitrile with 0.1% formic acid and internal standard epirubicin at a final concentration of 0.05 µg/mL. The mixture was then aspirated three times with a pipette and pushed through the Ostro^TM sorbent at 60 psi N2 for 5 min. The extract was finally filtered through a 0.2-µm regenerated cellulose filter and analyzed by liquid chromatography coupled to tandem mass spectrometry (LC-MS/MS).
The flow rate was 0.3 mL/min.
We determined the following pharmacokinetic parameters: the area under the plasma concentration-time curve (AUC), which was calculated using the trapezoid method from time 0 to 40 min after single bolus intravenous injection (AUC 0 → 40), and plasma clearance (Cl) was calculated as follows:(1) Cl=dose/AUC 0→40
The elimination rate constant kel was determined from the slope of ln (concentration) versus the time curve, and half-life was calculated using the following:(2) t ½=ln2/kel and volume of distribution (Vd) (3) Vd=t ½/ln2×Cl

For bleomycin, the t1/2 ([1]; SEM 1.79, 95% CI 25.69-33.10) is given as 29.4 min, the Vd ([1]; SEM 2.65, 95% CI 10.42-21.37) is given as 15.9 L and the “AUC 0 → 40” value ([1]; SEM 7.899, 95% CI 79.55-92.49) is given as 86.02 µg·min/mL. The “Plasma Clearance Cl” value ([1]; SEM 15.83, 95% CI 278.6-344.1) was 311.3 mL/min, the t1/2 ([2]; 40 min post-injection, SEM 2.10, 95% CI 20.22-29.46) was 24.84 min and the “Plasma Clearance Cl” value ([2]; dose/AUC 0→40, SEM 261.0, 95% CI 424.6-1574.0) was 999.1 mL/min. The “AUC 0 → 40” value ([2]; trapezoid method, SEM 7.90, 95% CI 33.44-68.22) was 50.83 µg·min/mL and the Vd ([2]; t½/ln2×Cl, SEM 6.24, 95% CI 18.44-45.90) was 32.17 L.
